Like-named read-outs stand apart in the source and are kept apart here.
Test system: HCV Replicon GT-1b
Experiment: microbe, parasite or virus in culture
Details: Hepatitis C virus, GT1B, read-out: HCV Replicon Assay EC50 uM

Row | SMILES | EC50 | EC50 (Huh-luc/neo-ET)
1 | CC(C)OC(=O)[C@H](C)N[P@@](=O)(OC[C@H]1O[C@@H](n2ccc(=O)[nH]c2=O)[C@](C)(F)[C@@H]1O)Oc1ccccc1 | 0.221 µM | –
2 | C[C@@]1(O)[C@H](O)[C@@H](COP(=O)(O)O)O[C@H]1n1ccc(=O)[nH]c1=S | 1.35 µM | –
3 | C[C@@]1(F)[C@H](O)[C@@H](CO)O[C@H]1n1ccc(=S)[nH]c1=O | > 100 µM | –
4 | CC(C)OC(=O)[C@H](C)NP(=O)(OC[C@H]1O[C@@H](n2ccc(=S)[nH]c2=O)[C@](C)(O)[C@@H]1O)Oc1ccccc1 (stereo partly drawn) [drawing 455] | 7.98 µM | –
5 | CC(C)OC(=O)[C@H](C)NP(=O)(OC[C@H]1O[C@@H](n2ccc(=O)[nH]c2=O)[C@](C)(O)[C@@H]1O)Oc1ccccc1 (stereo partly drawn) | 0.0317 µM | –
6 | CC(C)OC(=O)[C@H](C)NP(=O)(OC[C@H]1O[C@@H](n2ccc(=O)[nH]c2=S)[C@](C)(O)[C@@H]1O)Oc1ccccc1 (stereo partly drawn) [drawing 456] | – | 0.152 µM
7 | C[C@H](NP(=O)(O)OC[C@H]1O[C@@H](n2ccc(=O)[nH]c2=S)[C@](C)(O)[C@@H]1O)C(=O)O | > 100 µM | –
8 | CC(C)OC(=O)[C@H](C)NP(=O)(OC[C@H]1O[C@@H](n2ccc(=S)[nH]c2=O)[C@H](O)[C@@H]1O)Oc1ccccc1 (stereo partly drawn) [drawing 462] | > 100 µM | –
9 | CC(C)OC(=O)[C@H](C)NP(=O)(OC[C@H]1O[C@@H](n2ccc(=O)[nH]c2=[Se])[C@](C)(O)[C@@H]1O)Oc1ccccc1 (stereo partly drawn) | 3.97 µM | –
10 | CC(C)OC(=O)[C@H](C)NP(=O)(OC[C@H]1O[C@@H](n2ccc(=O)[nH]c2=S)[C@](C)(O)[C@@H]1O)Oc1ccccc1 (stereo partly drawn) [drawing 453] | 0.187 µM | –
11 | CC(C)OC(=O)[C@H](C)NP(=O)(OC[C@H]1O[C@@H](n2ccc(=O)[nH]c2=S)[C@H](O)[C@@H]1O)Oc1ccccc1 (stereo partly drawn) [drawing 463] | 39.2 µM | –
12 | CC(C)OC(=O)[C@H](C)N[P@](=O)(OC[C@H]1O[C@@H](n2ccc(=O)[nH]c2=O)[C@](C)(F)[C@@H]1O)Oc1ccccc1 [drawing 460] | 0.0199 µM | –
13 | C[C@@]1(O)[C@H](O)[C@@H](CO)O[C@H]1n1ccc(=O)[nH]c1=S [drawing 452] | > 100 µM | –
14 | C[C@@]1(O)[C@H](O)[C@@H](CO)O[C@H]1n1ccc(=S)[nH]c1=O | > 100 µM | –
15 | CC(C)OC(=O)[C@H](C)NP(=O)(OC[C@H]1O[C@@H](n2ccc(=S)[nH]c2=O)[C@](C)(F)[C@@H]1O)Oc1ccccc1 (stereo partly drawn) | > 100 µM | –

Reference: patent EP4817687A2, “NUCLEOTIDE AND NUCLEOSIDE THERAPEUTIC COMPOSITIONS AND USES RELATED THERETO” (Emory University, priority 2013, dated 2015)
